Data: paper PMC11482831 (bioRxiv, 2024)

Protein sequences, listed by entry. Tags and fused reporters are not part of them. Residues count along the entry.
UniProt O60894, 24-148: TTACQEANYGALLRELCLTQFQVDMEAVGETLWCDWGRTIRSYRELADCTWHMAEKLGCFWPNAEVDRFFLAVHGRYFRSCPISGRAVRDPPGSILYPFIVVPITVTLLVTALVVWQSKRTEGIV
UniProt O60895, 55-175: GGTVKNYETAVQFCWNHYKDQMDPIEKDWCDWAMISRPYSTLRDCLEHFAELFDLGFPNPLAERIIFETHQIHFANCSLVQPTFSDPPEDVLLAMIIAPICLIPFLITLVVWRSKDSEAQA
UniProt O60896, whole entry, looked up, tested part not stated: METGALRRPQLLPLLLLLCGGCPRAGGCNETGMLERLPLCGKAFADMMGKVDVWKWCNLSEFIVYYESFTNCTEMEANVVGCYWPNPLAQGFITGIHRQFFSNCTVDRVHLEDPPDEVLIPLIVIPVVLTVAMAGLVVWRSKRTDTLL

Legend:
[1] = biological target: T1, CTR (Homo sapiens, UniProt P30988); conditions: 50 μM SUMO-miniGs, agonist titration
T1 sequence (P30988 25-474): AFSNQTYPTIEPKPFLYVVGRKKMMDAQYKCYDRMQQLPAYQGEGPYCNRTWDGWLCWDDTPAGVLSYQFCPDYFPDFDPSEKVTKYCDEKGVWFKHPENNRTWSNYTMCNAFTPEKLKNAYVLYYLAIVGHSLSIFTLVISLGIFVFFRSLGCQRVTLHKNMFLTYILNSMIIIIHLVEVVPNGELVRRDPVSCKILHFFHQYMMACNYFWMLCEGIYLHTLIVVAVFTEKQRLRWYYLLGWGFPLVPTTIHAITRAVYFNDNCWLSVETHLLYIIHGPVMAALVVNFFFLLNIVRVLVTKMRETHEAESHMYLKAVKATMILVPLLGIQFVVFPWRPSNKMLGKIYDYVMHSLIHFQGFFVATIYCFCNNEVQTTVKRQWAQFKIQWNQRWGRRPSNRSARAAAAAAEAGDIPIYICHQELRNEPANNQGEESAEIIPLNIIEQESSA

[2] = biological target: CTR:R1 (AMY1R) (Homo sapiens, UniProt O60894+P30988); experiment: Native PAGE agonist titration with excess SUMO-miniGs, AMY1R; conditions: 50 μM SUMO-miniGs
[3] = biological target: CTR:R2 (AMY2R) (Homo sapiens, UniProt O60895+P30988); conditions: 50 μM SUMO-miniGs, agonist titration
[4] = biological target: AMY3R on cells (HiBiT-CTR.25–474 : mCitrine-RAMP3.25–148) (human) (UniProt O60896); experiment: FRET or BRET
[5] = biological target: AMY3R heterodimer (mCitrine-MBP-CTR.25–474 : mCitrine-MBP-RAMP3.25–148) (human) (UniProt O60896); experiment: native gel or EMSA

| Substance | Relative potency, ternary complex formation [1] | Relative potency, quaternary complex formation [2] | Relative potency, quaternary complex formation [3] | EC50 [4] | pEC50 of the change of the free RAMP3 band (agonist-promoted AMY3R dissociation) [5] |
| --- | --- | --- | --- | --- | --- |
| salmon calcitonin [sCT] | more potent than hCT and the other ligands | more potent than αCGRP and hCT | more potent than αCGRP | – | – |
| salmon calcitonin (peptide) | – | – | – | 22 nM | 7.21 |
